The numbers were not newly measured in article PMC7503831 (Molecules, 2020), which cites them from elsewhere.

Protein sequences, listed by entry. Tags and fused reporters are not part of them.
UniProt P41143, whole entry: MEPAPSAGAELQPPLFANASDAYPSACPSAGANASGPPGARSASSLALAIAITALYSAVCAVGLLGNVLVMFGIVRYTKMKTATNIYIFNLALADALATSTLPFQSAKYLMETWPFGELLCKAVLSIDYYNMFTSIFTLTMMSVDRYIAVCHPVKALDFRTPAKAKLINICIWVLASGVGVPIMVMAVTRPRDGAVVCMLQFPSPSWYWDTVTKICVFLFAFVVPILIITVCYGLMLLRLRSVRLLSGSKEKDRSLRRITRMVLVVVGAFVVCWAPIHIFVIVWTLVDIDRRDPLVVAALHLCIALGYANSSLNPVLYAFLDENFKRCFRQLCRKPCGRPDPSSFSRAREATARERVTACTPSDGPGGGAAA

Marks after values point to notes of the source that are not given here.

For data set [1], the target named is T1, human DOR (Homo sapiens, UniProt P41143). The conditions noted are these: cited from earlier work.
Data set [2] deals with T1, human DOR. The conditions noted are these: read-out: Binding Affinity, Ki (DOR) (95% CI); [3H]DPDPE, CHO cells expressing human DOR; cited from earlier work.

As for `C=CCN(CC=C)[C@@H](Cc1ccc(O)cc1)C(=O)NC(C)(C)C(=O)NC(C)(C)C(=O)N[C@@H](Cc1ccccc1)C(=O)N[C@@H](CC(C)C)C(=O)O`, in data set [1] (read-out: Functional Activity for DOR, EC50 (95% CI), [35S]GTPγS, human DOR recombinant CHO cell membrane), the EC50 was 114 nM. Further, the “Functional Activity for DOR, Emax (standard)” value in data set [1] (standards: DPDPE (1 μM) DOR agonist, ICI-174,864 (10 μM) DOR inverse agonist) is recorded as −100 ^f %. Also, in data set [2], the Ki is 422 nM.

By EC50 is commonly meant the concentration at which the effect is half-maximal. In general, Ki refers to a measure of affinity in units of concentration, obtained from inhibition or displacement.
